## AlphaSeq binding of Ab-95 light chain variants to a spike HR2 peptide

Values reported by Engelhart et al. 2022, doi:10.1038/s41597-022-01779-4 (FLAb copy).

The target is the same throughout: PDVDLGDISGINAS, from the HR2 region of SARS-CoV-2 spike.

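Variants in AAYL52 differ from the parent at up to three CDR positions; double and triple changes were sampled at random. AlphaSeq pools MATa yeast showing the antibodies with MATalpha yeast showing the peptide. After mating in shaken culture at 30 °C for 16 h, diploids were selected and their barcode pairs sequenced. Each replicate has its own calibration line, from reference interactions of the BCL2 family. Each pool was mated in three replicate cultures.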

Ab-95 is the parent antibody, in scFv form: VH, then three GGGGS repeats, then VL. The heavy chain is unchanged in all variants.
VH: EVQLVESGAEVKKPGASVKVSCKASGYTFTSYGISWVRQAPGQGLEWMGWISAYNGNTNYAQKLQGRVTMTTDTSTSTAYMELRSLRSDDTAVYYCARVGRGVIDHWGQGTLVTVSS
VL: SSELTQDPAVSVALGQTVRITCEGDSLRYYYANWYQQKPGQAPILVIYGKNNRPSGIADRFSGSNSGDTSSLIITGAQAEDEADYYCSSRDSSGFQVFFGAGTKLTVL

Substitutions are numbered in sequence along the VL above, starting at 1 (not Kabat).
Affinities are written as log10 Kd with Kd in nM; a lower number is a better binder.
Averages over replicates are reported, and they cover detected replicates only.
Where no diploid with the target was found in that replicate, the entry reads "nd": below detection, most likely a poor binder, though not proof of it.
For reference, the parent read 2.31 as the reference entry and 2.25 as a member of this library.
Nonspecific signal, from three strains lacking the peptide, appeared in 28% of pairings of library AAYL52, centred on 3.91 (5% of these signals below 2.90); values are not corrected for it. The control count says in how many pairings with the empty strains this scFv gave a signal, with their mean in brackets.

changes,"replicates, log10 nM",mean log10 Kd (nM),empty controls
Y29V/A32Q/D91N,3.78 / 3.69 / 3.68,3.72,3/9 (3.37)
P54C/R90V/D91H,nd / 4.07 / nd,4.07,3/9 (3.34)
N33I/P54D/V97L,nd / 3.40 / nd,3.40,5/9 (3.64)
Y29L/S55I/G94W,3.24 / nd / 3.68,3.46,7/9 (4.03)
G24S/R90E/F98G,nd / nd / nd,nd,4/9 (4.05)
G49F/S88K,nd / 5.60 / nd,5.60,0/9
R90T/S92G/V97A,nd / 4.60 / nd,4.60,3/9 (4.41)
D25Y/Y29L/S55F,6.00 / 5.07 / 3.21,4.76,5/9 (4.69)
Y30H/K50V/D91P,1.92 / 1.86 / 1.44,1.74,4/9 (4.10)
S26G/N33S/S92N,2.69 / 2.86 / 3.16,2.90,4/9 (3.53)
A32Q/N52R/S55N,2.69 / 3.13 / 2.41,2.74,1/9 (3.24)
D25V/R28G,2.65 / 3.02 / nd,2.84,0/9
S55G/G94T/F98T,2.56 / 2.14 / 3.08,2.60,1/9 (4.33)
S26M/R90G,nd / nd / nd,nd,1/9 (4.66)
R28Q/N33R/S55Q,nd / 2.64 / nd,2.64,3/9 (4.13)
E23M/N33F/D91V,nd / nd / 4.67,4.67,5/9 (3.78)
N51E/S92L/G94E,3.13 / nd / nd,3.13,2/9 (3.31)
N33T/S88P,nd / nd / nd,nd,1/9 (4.35)
A32W/S89W,nd / nd / nd,nd,1/9 (3.28)
R28I/G49N/S55N,2.87 / nd / nd,2.87,3/9 (3.95)
N51T/F95S,3.13 / 2.71 / 1.95,2.60,4/9 (3.40)

Second part, the sequence after the result:

"replicates, log10 nM",mean log10 Kd (nM),empty controls,changes
2.73 / 2.99 / 2.61,2.78,3/9 (3.95),D25L/Y30K/N52K
2.62 / nd / 4.16,3.39,2/9 (3.55),Y30T/N51Y/S55I
3.63 / 3.00 / nd,3.31,6/9 (3.85),R28A/D91P
4.36 / 3.96 / 4.16,4.16,4/9 (4.31),Y30S/N51K/P54R
3.76 / 3.47 / 4.04,3.76,4/9 (4.51),K50E/S55V/D91T
3.79 / nd / 4.33,4.06,3/9 (4.47),A32R/R53W/P54Y
nd / nd / 4.35,4.35,3/9 (4.14),R28C/A32W/D91C
4.07 / nd / 4.10,4.08,5/9 (3.48),S26E/N51R/G94C
nd / nd / nd,nd,2/9 (4.35),R90F/Q96M/V97M
nd / 5.64 / 3.19,4.42,2/9 (3.12),R28C/S88C/V97P
3.17 / 2.47 / 1.89,2.51,6/9 (4.34),S89R/G94A/F98L
2.91 / 2.79 / 2.91,2.87,5/9 (4.10),A32F/N51S/S93A
4.10 / nd / 4.37,4.24,3/9 (3.63),G24N/S93H/G94K
3.91 / nd / nd,3.91,1/9 (3.99),D25T/N51W/G94E
nd / 3.31 / nd,3.31,0/9,N33V/S89M
5.14 / nd / 3.67,4.41,1/9 (4.87),R28Y/S88W/Q96S
2.15 / 1.79 / 1.85,1.93,3/9 (3.72),E23M/Y31M/G94I
nd / nd / nd,nd,0/9,A32I/S92N/F95V
3.48 / nd / 4.19,3.83,2/9 (2.99),R90D/V97L
2.78 / 2.84 / 2.14,2.59,4/9 (4.25),D25W/Y31N/G94W
4.59 / nd / 3.07,3.83,4/9 (3.91),N33P/K50H/Q96G
4.08 / 5.75 / 4.16,4.66,1/9 (4.01),Y29F/N51R/N52E

For reference, 6 entries of the list once more:

changes,"replicates, log10 nM",mean log10 Kd (nM),empty controls
A32F/N51S/S93A,2.91 / 2.79 / 2.91,2.87,5/9 (4.10)
E23M/N33F/D91V,nd / nd / 4.67,4.67,5/9 (3.78)
D25Y/Y29L/S55F,6.00 / 5.07 / 3.21,4.76,5/9 (4.69)
D25V/R28G,2.65 / 3.02 / nd,2.84,0/9
R28C/A32W/D91C,nd / nd / 4.35,4.35,3/9 (4.14)
S55G/G94T/F98T,2.56 / 2.14 / 3.08,2.60,1/9 (4.33)